## Apparent affinities of Ab-14 variants for a coronavirus HR2 peptide

Source: Li et al. 2023 (doi:10.1038/s41467-023-39022-2), MIT Lincoln Laboratory and A-Alpha Bio; data file from the FLAb repository.

Binding partner: SARS-CoV-2 spike HR2 peptide, sequence PDVDLGDISGINAS.

Ab-14 is the parent antibody, in scFv form: VH, then three GGGGS repeats, then VL. The heavy chain is unchanged in all variants.
VH: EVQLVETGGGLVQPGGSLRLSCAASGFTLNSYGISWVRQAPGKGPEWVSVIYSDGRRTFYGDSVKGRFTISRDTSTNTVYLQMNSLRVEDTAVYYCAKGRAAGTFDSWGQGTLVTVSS
VL: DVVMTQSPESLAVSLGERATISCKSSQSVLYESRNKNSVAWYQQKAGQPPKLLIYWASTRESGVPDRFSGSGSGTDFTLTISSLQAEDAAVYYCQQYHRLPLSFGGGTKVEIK

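Phage display of a naive human antibody library on the peptide gave the parent. This is the validation round: designs drawn from the data on random variants, tested in the same kind of assay. Group labels follow the data file (En: ensemble of fine-tuned language models; GP: Gaussian process model; HC: hill climbing; Gen: genetic algorithm; Gibbs: Gibbs sampling; a sequence that several methods proposed may carry one label only). The assay is AlphaSeq: two haploid yeast populations carry antibody and antigen on their surface. Binding brings cells together so that they mate, and sequencing counts the barcode pairs among the diploids. Scores were corrected for input abundance and mapped to Kd with protein pairs of known affinity run in the same pool. Each pool was mated in six replicate cultures.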

Each variant is given by its three light chain CDRs, as the data file delimits them; those of the parent are KSSQSVLYESRNKNSVA, WASTRES, QQYHRLPLS.
This list holds designs with more than six substitutions.
Numbers give log10(Kd / nM), so 0 is 1 nM and 3 is 1 µM. Smaller is tighter.
An entry "nd" has no value in the source: the pair was not observed among the diploids in that replicate. This suggests poor binding but is not conclusive.
The authors averaged sequences with at least three values out of six and counted those with two or fewer as poor binders.
Background: pairings of all light chain designs with three empty control strains gave a value in 4% of cases (median 2.64, 5th percentile 1.59). Values in that range, when seen in few replicates, are hard to tell from nonspecific mating.
The parent sequence was in this pool as ten entries: three were never detected, three once, and four in most replicates, with averages from 0.34 to 2.37.
Values of this round are not directly comparable with the first-round values of the same sequences.

For KVSGLGLYGQRNKNSVA | EASYRED | QQYHRLPLS [GP_Gibbs], the assay gave -0.15, -0.20, -0.32, -0.42, -0.37, -0.10. With KLPMATMVESVSKNNVA | ELSTRGS | QQYHRLPLS [En_HC] the result was 0.73, 0.56, 0.60, 0.38, 0.47, 0.90. With SLMNLMGGIEQMKNSIA | NLELGAR | QQYAHLPLV [En_Gibbs] the result was nd, nd, nd, nd, nd, nd. Variant QLYEMLYELSGKSHSVA | DNSTRGE | QQYFRLPLD [En_Gen] showed nd, nd, 1.45, 1.82, 2.33, nd. Variant TISQVMNTLSRQGNNVA | DLQNRED | QQYFRLPLS [En_Gen] gave 0.76, 0.53, 0.15, 0.25, 0.55, 0.43. With KISSMVKVGMTHQNSIA | EEQTRAK | QQYHRLPLA [En_Gen] the result was 0.93, 1.58, 1.29, 1.16, 0.60, 0.33. With KFSQMANQFSVSMNAVA | EMSTREN | QQYNRLPLS [En_Gen] the result was 0.94, 0.72, 0.71, 0.78, 0.81, 1.33.

Variant KFNISKEGVTSYGKSIA | GAQTIDE | QQYDRLPLA [En_Gibbs] gave 1.46, 1.49, 1.52, 1.46, 1.01, 1.18. Variant QLFSRWGQLTEIRQAVA | DATTVID | QQYMHLPLT [En_Gibbs] showed nd, nd, nd, nd, 0.18, nd. For KLSMVTGHMSMAKNNVA | EMETREK | QQYNRLPLA [En_Gen], the assay gave 0.00, 0.06, 0.01, -0.33, -0.18, 0.15. With KFSQLWMYEQRNKNSVA | QASQRES | QQYHRLPLS [GP_Gibbs] the result was -0.06, -0.26, -0.39, -0.53, -0.45, -0.18. For KQQMSVMMGSRNKNSVA | SASKREA | QQYHRLPLS [GP_Gibbs], the assay gave 1.79, 1.42, 1.47, 1.15, 1.71, 1.40. Variant KSSCSERYDSPNSNSVA | NASTREM | QQYHRLPLS [GP_Gibbs] gave 0.14, 0.36, 0.19, -0.03, 0.29, 0.47. For KLSQQDWYEQRNCNSVA | QASTREQ | QQYHRLPLS [GP_Gibbs], the assay gave 0.41, 0.74, 0.37, 0.58, 0.37, 0.58.

For KLKYQADHYGMNQGNVA | QADIRAP | QQYNKLPLN [En_Gibbs], the assay gave nd, nd, 0.95, nd, nd, nd. For KVSPEMEYSSRNKASVA | HASTRES | QQYHRLPLS [GP_Gibbs], the assay gave 1.72, 1.71, 1.52, 2.47, 2.01, 1.82. With KLMGQGDHSIKHANSIA | NVDNVDM | QQYAHLPLS [En_Gibbs] the result was 1.37, 1.36, 1.07, 0.83, 1.31, 0.88. For KLSMSWEYESRNSNSVA | NASTREN | QQYHRLPLA [GP_Gibbs], the assay gave 0.42, 0.25, -0.04, 0.13, 0.49, 0.16. For TISQMTSLFSMSINNVA | EVSTREE | QQYDRLPLA [En_Gen], the assay gave 0.79, 1.04, 1.04, 1.00, 0.74, 0.88. Variant AVDFSHLGESRNKNSVA | EASTREQ | QQYHRLPLS [GP_Gibbs] gave 0.07, -0.01, -0.05, -0.06, -0.18, 0.15. Variant KLFGGIPEQERDDYSIA | YGTLSEV | QQYDRLPLS [En_Gibbs] showed nd, nd, nd, nd, nd, 3.29.

Variant LVDQSQLYENRMKNSVA | EASLRES | QQYHRLPLS [GP_Gibbs] gave 0.43, 0.69, 0.34, 0.35, 0.39, 0.49. For KLVQSNLYESRNTNSVA | NASQRLS | QQYHRLPLS [GP_Gibbs], the assay gave 0.07, -0.12, -0.17, -0.12, -0.17, 0.04. With KLFDETSSEQVNARAVA | DSLAVHE | QQYHMLPLS [En_Gibbs] the result was nd, nd, nd, nd, 2.12, nd. Variant HLSQSYDLESVHKNSIA | DLMTRES | QQYHRLPLS [En_HC] showed 0.22, -0.01, -0.51, -0.23, 0.83, 0.41. Variant KFSISWGMESRNKNSVA | NASTRMS | QQYHRLPLS [GP_Gibbs] showed -0.03, -0.22, 0.01, -0.03, -0.29, -0.11. Variant TLYGLSMSMSKNKNNVA | EMTTREK | QQYDRLPLQ [En_Gen] showed 0.80, 0.72, 0.62, 0.97, 0.54, 0.99. Variant KIGMTLNQLLHKQNNVA | DLVMREN | QQYHRLPLS [En_Gen] gave nd, 2.06, 1.76, 0.76, 1.50, 1.77.

Variant KITTTMRFEQKQSNNIA | EVTTRSK | QQYYRLPLA [En_Gen] showed 0.18, 0.48, 0.93, 1.14, 0.73, 0.74. Variant KLLQTVMNGTRNRNNVA | HMTTRED | QQYHRLPLS [En_HC] showed 2.05, 0.79, 0.46, 0.93, 0.48, 0.87. Variant KVYWSVDYEDRNKNSVA | HASVRES | QQYHRLPLS [GP_Gibbs] showed 0.57, 0.68, 0.57, 0.46, 0.26, 0.70. Variant HMSMLTMMGSRQRNSVA | QMTTREN | QQYDRLPLM [En_Gen] gave 0.43, 0.37, 0.39, 0.15, 0.22, 0.41. For KIGQTLNQLMHQKNNVA | DLVMREQ | QQYHRLPLS [En_Gen], the assay gave 0.98, 0.79, 0.78, 1.37, 0.69, 1.14. Variant ALSQSMDMTSRNGNSVA | DLTTRGN | QQYHRLPLS [En_HC] showed 0.96, 0.22, 0.65, 0.29, -0.27, 0.16.

For reference, 4 entries of the list once more:

Variant KIGMTLNQLLHKQNNVA | DLVMREN | QQYHRLPLS [En_Gen] gave nd, 2.06, 1.76, 0.76, 1.50, 1.77.
Variant LVDQSQLYENRMKNSVA | EASLRES | QQYHRLPLS [GP_Gibbs] gave 0.43, 0.69, 0.34, 0.35, 0.39, 0.49.
Variant KFSQLWMYEQRNKNSVA | QASQRES | QQYHRLPLS [GP_Gibbs] gave -0.06, -0.26, -0.39, -0.53, -0.45, -0.18.
Variant ALSQSMDMTSRNGNSVA | DLTTRGN | QQYHRLPLS [En_HC] gave 0.96, 0.22, 0.65, 0.29, -0.27, 0.16.